What all share (assay): purified protein
One data set has as its system NC(=O)CC[C@H](N)C(=O)O. Particulars: pH 8.5, 25 °C, 20 mM MgCl2, XMP 0.15 mM, ATP 2 mM fixed.
Data set [1] concerns O=c1[nH]c(=O)c2ncn([C@@H]3O[C@H](COP(=O)(O)O)[C@@H](O)[C@H]3O)c2[nH]1. The note with it: pH 8.5, 25 °C.
Data set [2] relates to Nc1ncnc2c1ncn2[C@@H]1O[C@H](COP(=O)(O)OP(=O)(O)OP(=O)(O)O)[C@@H](O)[C@H]1O. The note with it: pH 8.5, 25 °C, 20 mM MgCl2, XMP 0.15 mM.
Where [3] appears, read: 20 mM MgCl2, ATP 2 mM, Gln 15 mM fixed.
The mark [4] stands for this setting: 20 mM MgCl2, ATP 2 mM, Gln 40 mM fixed.
Where [5] appears, read: 20 mM MgCl2, ATP 5 mM, Gln 5 mM fixed.

One may read the Km as the concentration of substrate that gives half-maximal velocity. Usually kcat stands for the maximal rate divided by the concentration of active sites.

As to “PfGMPS (Plasmodium falciparum 3D7; D412A)”, in the data set with NC(=O)CC[C@H](N)C(=O)O, the Km turned out to be 2610 ± 220 µM and the kcat was determined as 0.657 ± 0.004 s⁻¹.

For the substance “PfGMPS (Plasmodium falciparum 3D7; D413A)”, in data set [1] (setting [3]), the Km is 20 ± 2.9 µM and the turnover number (kcat) is 0.532 ± 0.011 s⁻¹.

Turning to “PfGMPS (Plasmodium falciparum 3D7; K24L)”, the Km in the data set on NC(=O)CC[C@H](N)C(=O)O came to 1750 ± 60 µM; in data set [2] (Gln 40 mM fixed) it was 67 ± 3 µM; in data set [1] (setting [4]), 20.6 ± 1 µM. Besides, the values for the kcat (with NC(=O)CC[C@H](N)C(=O)O; in data set [2] (Gln 40 mM fixed); in data set [1] (setting [4])) were 0.296 ± 0.007 s⁻¹, 0.340 ± 0.004 s⁻¹ and 0.327 ± 0.005 s⁻¹, respectively.

Take “PfGMPS (Plasmodium falciparum 3D7; K415L)”: the Km in data set [2] (Gln 5 mM fixed) is given as 500 ± 11 µM; in data set [1] (setting [5]) it was 14.4 ± 1.5 µM. The catalytic constant (kcat) was found to be 0.733 ± 0.018 s⁻¹ in data set [2] (Gln 5 mM fixed) and 0.744 ± 0.059 s⁻¹ in data set [1] (setting [5]).

For the origin of these results see paper doi:10.1101/808618v2.
